Target: OX2R (Homo sapiens, UniProt O43614)
Assay: radioligand binding assay, OX2 receptor
Settings: read-out: OX2R Ki; membranes prepared from CHO cells expressing the OX2 receptor
Protocol: The utility of the compounds in accordance with the present invention as orexin receptor OX1R and/or OX2R antagonists may be readily determined without undue experimentation by methodology well known in the art, including the “FLIPR Ca^2+ Flux Assay” (Okumura et al., Biochem. Biophys. Res. Comm. 280:976-981, 2001). In a typical experiment the OX1 and OX2 receptor antagonistic activity of the compounds of the present invention was determined in accordance with the following experimental method. […] Within the Fluorescent Imaging Plate Reader (FLIPR, Molecular Devices), test compounds are added to the plate in a volume of 25 ul, incubated for 5 min and finally 25 ul of agonist is added. Fluorescence is measured for each well at 1 second intervals for 5 minutes and the height of each fluorescence peak is compared to the height of the fluorescence peak induced by 70 pM Ala-6,12 orexin-A with buffer in place of antagonist. […] Alternatively, compound potency can be assessed by a radioligand binding assay (described in Bergman et. al. Bioorg. Med. Chem. Lett. 2008, 18, 1425-1430) in which the inhibition constant (Ki) is determined in membranes prepared from CHO cells expressing either the OX1 or OX2 receptor. The intrinsic orexin receptor antagonist activity of a compound which may be used in the present invention may be determined by these assays.

Chains of the proteins cited; added tags and fusions are not shown.
UniProt O43614, whole entry: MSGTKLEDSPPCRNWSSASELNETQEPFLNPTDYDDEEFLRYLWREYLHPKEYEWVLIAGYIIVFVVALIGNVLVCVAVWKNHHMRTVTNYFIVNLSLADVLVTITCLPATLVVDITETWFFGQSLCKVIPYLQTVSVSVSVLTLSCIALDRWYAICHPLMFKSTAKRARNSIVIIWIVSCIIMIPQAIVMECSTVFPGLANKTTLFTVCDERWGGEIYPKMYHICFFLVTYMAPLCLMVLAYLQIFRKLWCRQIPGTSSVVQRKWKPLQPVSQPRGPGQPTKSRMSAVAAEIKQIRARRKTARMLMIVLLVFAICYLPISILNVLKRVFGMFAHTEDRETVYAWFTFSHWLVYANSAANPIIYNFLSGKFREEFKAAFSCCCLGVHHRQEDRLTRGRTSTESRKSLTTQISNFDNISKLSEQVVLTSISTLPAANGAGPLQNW

COc1ccc(CNC(=O)c2cc(-c3cncc(C)c3)cnc2-c2ccccc2F)nc1OC
Ki: 0.74 nM

Source: patent US8003797B2, “Pyridine carboxamide orexin receptor antagonists” (Merck Sharp & Dohme Corp., priority 2007, dated 2011)
